In article PMC10141516, “Development of Clinically Optimized Sitagliptin and Dapagliflozin Complex Tablets: Pre-Formulation, Formulation, and Human Bioequivalence Studies” (Pharmaceutics, 2023):

Experiment: Stability study of the APIs in pH buffers (total impurity by HPLC)
Assay type: physicochemical
Details: pH 5.0 buffer; 40 ± 2 °C/75 ± 5% RH; 3 Days
Experimental: The column used was the Gemini C18 column (5.0 μm, 250 mm). Mobile phase A of the impurity study was prepared with KH2PO4 buffer (v/v, solution adjusted to pH 6.0 with 1 M KOH): acetonitrile: methanol = 85: 10: 5 (v/v/v), and mobile phase B was prepared with 90% acetonitrile. The mobile phase was filtered through a 0.4 μm polypropylene membrane filter and degassed via sonication. The diluted solution was prepared with KH2PO4 buffer (v/v, solution adjusted to pH 6.0 with 1 M KOH) and acetonitrile at a ratio of 7:3 (v/v). The wavelength, flow rate, and injection volume were set to 220 nm, 1.0 mL/min, and 20 μL, respectively. The column and sample thermostats were set to 35 °C and 5 °C, respectively. In the case of the impurity study, the analysis was performed by changing the composition of the mobile phase for 80 min using a gradient elution method for 80 min.
[…] […] We performed a calibration test, and the sample was diluted with a diluted solution and prepared at a concentration of 0.05–1 mg/mL.

In the case of `CCOc1ccc(Cc2cc([C@@H]3O[C@H](CO)[C@@H](O)[C@H](O)[C@H]3O)ccc2Cl)cc1` [Dapagliflozin, (1S)-1,5-Anhydro-1-C-[4-chloro-3-[(4-ethoxyphenyl)methyl]phenyl]-D-glucitol (S)-propane-1,2-diol (1:1) monohydrate], the “Total Impurity” value is reported as 1.36%.
